According to patent publication US20160024092A1, “INTRAVENOUS FORMULATIONS OF NEUROKININ-1 ANTAGONISTS” (OPKO Health, Inc., priority 2009, published 2016):

Assay: Blood levels and half life of Compound 1 after intravenous administration
Conditions: in vivo

C[C@@H](OC[C@@]1(c2ccccc2)CC[C@]2(CCC(=O)N2)CN1)c1cc(C(F)(F)F)cc(C(F)(F)F)c1 [Compound 1, (5S,8S)-8-[{(1R)-1-(3,5-Bis-(trifluoromethyl)phenyl)-ethoxy}-methyl]-8-phenyl-1,7-diazaspiro[4.5]decan-2-one]
half-life: 180 h
